From PubChem BioAssay AID1578 (Sanford-Burnham Center for Chemical Genomics, 2009)
The entries are a selection whose mix differs from that of the whole data set. Activity calls are given as the source filed them. No stated cut-off is given here; in the data, active means inhibition mostly above about 36% (no sharp cut-off); inactive means mostly below about 34%.

Assay: NOD1 signaling inhibitors, primary screen, cell-based, luminescence, uHTS (AID 1578);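 further: HEK-293T reporter cells stimulated with the NOD1 agonist gamma-tri-DAP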
Conditions: NOD1-driven NF-kB luciferase reporter cells, at 4 µM, active compounds read high

Structure (SMILES) | inhibition
O=c1c2cc([N+](=O)[O-])ccc2[nH]c2c([N+](=O)[O-])cc([N+](=O)[O-])cc12 | active: 73.4%
O=[N+]([O-])c1ccc(O)c(/C=N/Nc2ccc([N+](=O)[O-])cc2[N+](=O)[O-])c1 | active: 99.1%
C[N+]1=C2C=CC=CC=C2SC12C([N+](=O)[O-])=CC([N+](=O)[O-])=C[C-]2[N+](=O)[O-] (stereo not drawn) | active: 95.5%
